## scFv variants of Ab-14 (light chain) against a SARS-CoV-2 spike peptide

Values reported by Li et al. 2023, doi:10.1038/s41467-023-39022-2 (FLAb copy).

Target peptide (SARS-CoV-2 spike, HR2 region): PDVDLGDISGINAS

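The parent was found by panning a naive human phage display library on the peptide. These sequences belong to a second round, designed from the earlier measurements on random variants of the parent. Their group label is 14L_GP_Gibbs (GP: Gaussian process model; Gibbs: Gibbs sampling; a sequence that several methods proposed may carry one label only). In AlphaSeq, yeast of one mating type display the scFv and yeast of the other type display the target. The frequency of each diploid, read from paired DNA barcodes, reflects how well the two displayed proteins bind. A regression on co-assayed BCL2-family reference pairs converts the normalised counts of each replicate to an apparent Kd. The assay was run in six technical replicates.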

Parent: Ab-14, a human scFv built as VH, three GGGGS repeats, VL. Only the CDRs of the light chain vary.
VH: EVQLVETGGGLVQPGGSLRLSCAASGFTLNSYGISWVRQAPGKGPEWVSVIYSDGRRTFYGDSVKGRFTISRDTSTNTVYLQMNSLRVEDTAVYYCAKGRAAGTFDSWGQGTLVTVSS
VL: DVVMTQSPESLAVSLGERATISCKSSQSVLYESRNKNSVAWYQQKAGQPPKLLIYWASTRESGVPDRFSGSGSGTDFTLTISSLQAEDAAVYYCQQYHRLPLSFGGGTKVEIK

The parent's light chain CDRs are KSSQSVLYESRNKNSVA, WASTRES, QQYHRLPLS; each variant's own CDRs replace them letter for letter.
Scale: log10 of Kd in nM, estimated from mating counts; low values are strong binders.
A mean of the replicates is given; it leaves out those without a signal.
"nd" marks a missing value. The strain was present, yet no cells mated with the target were sequenced in that replicate, which points to weak or no binding.

| CDR-L1 | CDR-L2 | CDR-L3 | log10 Kd (nM) by replicate | mean, log10 nM | signal with controls |
|---|---|---|---|---|---|
| KVSWSNLYESRNANSVA | NASQRCS | QQYHRLPLS | 0.29 0.03 0.01 -0.12 -0.04 0.40 | 0.09 | 0 of 18 |
| KLSQEMLYESRMINSVA | NASQREE | QQYHRLPLS | 0.41 0.25 0.16 0.35 0.07 0.25 | 0.25 | 0 of 18 |
| KLSQSVLYQSQNKNNVA | NAQTRMS | QQYHRLPLS | -0.22 -0.34 -0.44 -0.38 -0.29 -0.13 | -0.30 | 0 of 18 |
| KMSQSAPMESRNANSVA | NASTRES | QQYHRLPLS | -0.25 -0.35 -0.43 -0.52 -0.64 -0.25 | -0.41 | 3 of 18 (2.93) |
| KLQQSVLPESRNSNSVA | EASLRLS | QQYHRLPLS | 0.47 0.26 -0.06 -0.06 0.03 0.04 | 0.11 | 0 of 18 |
| KLMNSMLYESRNVNNVA | NASYREL | QQYHRLPLS | -0.12 -0.16 -0.18 -0.24 -0.17 0.03 | -0.14 | 0 of 18 |
| KFSQGFLYEERQKNSVA | HASQRES | QQYHRLPLS | 0.35 0.28 0.08 0.04 0.07 0.35 | 0.19 | 2 of 18 (2.33) |
| HSSWSVDDESRNDNSVA | DASTRES | QQYHRLPLS | 1.21 1.35 1.50 1.00 1.27 1.42 | 1.29 | 0 of 18 |
| KLSSSWLYESRNMNSVA | QASQRLR | QQYHRLPLS | nd 2.68 1.61 2.75 nd 2.93 | 2.49 | 0 of 18 |
| KLSQSMLYEERNLNSVA | HASQRMS | QQYHRLPLS | -0.28 -0.54 -0.28 -0.75 -0.26 -0.41 | -0.42 | 0 of 18 |
| KVSLSVLLESRNVNAVA | EASTRES | QDYHRLPLS | 0.34 0.38 0.51 0.36 0.13 0.32 | 0.34 | 0 of 18 |
| KLSQSVMYGQRNKNSVA | NASTRMS | QQYHRLPLY | 0.30 0.35 0.21 0.14 0.34 0.40 | 0.29 | 3 of 18 (2.86) |
| KLDFLGPYEQRNKNSVA | SASYRES | QQYHRLPLS | 0.00 -0.55 -0.06 -0.29 -0.01 -0.11 | -0.17 | 0 of 18 |
| KLEMSQLYESRNKNNVA | SASHREH | QQYHRLPLS | -0.26 -0.37 -0.35 -0.36 -0.35 -0.18 | -0.31 | 1 of 18 (3.07) |
| KVSQSVEYEDRNKNSVA | QASQRCS | QQYHRLPLS | -0.12 0.03 -0.07 -0.14 -0.20 -0.04 | -0.09 | 0 of 18 |
| KLSQSVLMESRMKNSVA | DASQREE | QQYHRLPLS | -0.15 -0.27 -0.23 -0.38 -0.21 -0.19 | -0.24 | 2 of 18 (3.37) |
| KMPQSWWYESRNKWSVA | NASERES | QQYHRLPLS | -0.26 0.25 0.08 -0.02 -0.18 0.37 | 0.04 | 0 of 18 |
| KLDMSDLMESRNWNAVA | SASTREE | QQYHRLPLS | -0.11 -0.26 -0.22 -0.01 -0.30 0.11 | -0.13 | 1 of 18 (1.91) |
| KVDISQLLESRNKNSVA | NASLRCS | QQYHRLPLS | 1.22 0.97 0.92 0.75 0.95 0.99 | 0.97 | 0 of 18 |
| KLQQGYWYESRNKNSVA | MASTREV | QQYWRLPLS | 1.26 1.30 1.59 1.91 2.08 1.47 | 1.60 | 0 of 18 |
| KSSGSVEMLSRNVNNVA | EASTREL | QQYHRLPLS | 0.78 0.15 0.15 -0.05 0.18 0.36 | 0.26 | 0 of 18 |
| KCQQSQLYESRNKNAVA | NASTRED | QQYHRLPLS | -0.22 -0.34 -0.31 -0.37 -0.22 -0.23 | -0.28 | 0 of 18 |
| KLSQSMEYESRNVNSVA | SASTRES | QQYHRLPLM | 0.64 0.04 0.37 0.23 0.21 0.27 | 0.29 | 0 of 18 |
| KLSQHVVYESRNKNSVA | NASTRLS | QQYHRLPLS | 0.14 0.07 0.12 -0.13 -0.03 0.12 | 0.05 | 0 of 18 |
| KIMQSYLGEWRNCNSVA | NASQRES | QQYHRLPLS | 0.41 0.23 0.36 0.29 0.14 0.39 | 0.30 | 0 of 18 |
| KLMWSMEYESRNQNSVA | SASYRES | QQYHRLPLS | 0.75 0.24 0.15 0.19 0.33 0.80 | 0.41 | 1 of 18 (2.91) |
| KVSQGVLDESRNKNSVA | WASTREG | QQYHRLPLS | 1.18 0.90 1.06 0.86 0.96 1.32 | 1.05 | 0 of 18 |
| KFMQMVWQEDRNKNSVA | NASTRMQ | QQYHRLPLS | 0.19 0.51 0.34 0.03 0.37 0.33 | 0.30 | 1 of 18 (2.10) |
| KISQSFLMESRNKNSVA | NASTRCW | QQYHRLPLS | 1.08 0.79 1.02 0.63 0.68 0.95 | 0.86 | 2 of 18 (2.66) |
| KMSQSMGYEERNKNSVA | NASQRMS | QQYHRLPLS | -0.13 -0.23 -0.46 -0.39 -0.30 -0.17 | -0.28 | 0 of 18 |
| KMSQSMGYGERNKNSVA | HASQRMS | QQYHRLPLS | 0.38 0.32 0.12 0.15 1.63 -0.04 | 0.43 | 0 of 18 |
| KMSQSQLYEERNSNAVA | QASQRMS | QQYHRLPLS | 0.25 0.36 -0.02 -0.04 0.04 0.12 | 0.12 | 0 of 18 |
| KMAQSNPYESRNKNSVA | NASYREM | QQYHRLPLS | 0.16 -0.38 0.00 -0.35 -0.16 -0.06 | -0.13 | 0 of 18 |
| HVSQSKLQGQRNKNSVA | EASQRER | QQYHRLPLS | 0.50 0.58 0.73 0.58 0.77 0.43 | 0.60 | 3 of 18 (2.64) |
| KLSQSDLYEDRNLNNVA | NASQRES | QQYHRLPLM | 0.17 0.15 0.14 -0.14 0.24 0.22 | 0.13 | 0 of 18 |
| KIQQSWLYESRNINNVA | NCSKRES | QQYHRLPLS | 0.59 0.64 0.34 0.36 0.44 0.62 | 0.50 | 2 of 18 (3.15) |
| KFSQSVLYESRNKNSVA | NAQTRLW | QQYHRLPLS | 0.16 0.09 0.12 0.15 0.03 0.26 | 0.14 | 0 of 18 |
| KVSQGVWYESRNKNSVA | WASTREV | QQYHRLPLS | 1.69 1.89 1.03 1.71 1.89 1.93 | 1.69 | 1 of 18 (2.06) |
| KWEYSVLGESRNKNAVA | QASQREQ | QQYHRLPLS | 0.01 0.16 0.07 0.04 -0.15 0.33 | 0.08 | 1 of 18 (4.24) |
| KIMQSYLGEMRNCNSVA | NASQRES | QQYHRLPLS | 1.44 0.99 0.60 1.03 1.49 1.17 | 1.12 | 2 of 18 (2.37) |
| KVYWSVDYGDRNKNSVA | HASRRES | QQYHRLPLS | 1.02 1.07 1.02 0.87 0.77 0.98 | 0.96 | 4 of 18 (2.83) |
| KSFFSEPGESRNKNSVA | SASTRES | QQYHRLPLS | 0.24 0.35 0.36 0.38 0.23 0.43 | 0.33 | 3 of 18 (2.99) |
| KLSSSFLYGDRMKNSVA | QASQRES | QQYHRLPLS | 0.39 0.37 0.65 0.34 0.63 0.26 | 0.44 | 0 of 18 |
| KLVQSWLYLSRNHNAVA | HASQRCS | QDYHRLPLS | 0.70 1.07 0.82 0.98 0.35 1.60 | 0.92 | 0 of 18 |
| KLQQSELYEERMSNSVA | SASLRES | QQYHRLPLS | 0.44 0.51 1.48 0.60 0.93 1.07 | 0.84 | 0 of 18 |
| KLSGSQLYESRNSNSVA | QGSTRES | QDYHRLPLS | 0.23 -0.04 0.01 -0.07 -0.20 0.12 | 0.01 | 1 of 18 (2.45) |

A selection of 8 entries from above:

| CDR-L1 | CDR-L2 | CDR-L3 | log10 Kd (nM) by replicate | mean, log10 nM | signal with controls |
|---|---|---|---|---|---|
| KLSQEMLYESRMINSVA | NASQREE | QQYHRLPLS | 0.41 0.25 0.16 0.35 0.07 0.25 | 0.25 | 0 of 18 |
| KLDFLGPYEQRNKNSVA | SASYRES | QQYHRLPLS | 0.00 -0.55 -0.06 -0.29 -0.01 -0.11 | -0.17 | 0 of 18 |
| KCQQSQLYESRNKNAVA | NASTRED | QQYHRLPLS | -0.22 -0.34 -0.31 -0.37 -0.22 -0.23 | -0.28 | 0 of 18 |
| KLMNSMLYESRNVNNVA | NASYREL | QQYHRLPLS | -0.12 -0.16 -0.18 -0.24 -0.17 0.03 | -0.14 | 0 of 18 |
| KLDMSDLMESRNWNAVA | SASTREE | QQYHRLPLS | -0.11 -0.26 -0.22 -0.01 -0.30 0.11 | -0.13 | 1 of 18 (1.91) |
| KVSLSVLLESRNVNAVA | EASTRES | QDYHRLPLS | 0.34 0.38 0.51 0.36 0.13 0.32 | 0.34 | 0 of 18 |
| KLSQSVLMESRMKNSVA | DASQREE | QQYHRLPLS | -0.15 -0.27 -0.23 -0.38 -0.21 -0.19 | -0.24 | 2 of 18 (3.37) |
| KWEYSVLGESRNKNAVA | QASQREQ | QQYHRLPLS | 0.01 0.16 0.07 0.04 -0.15 0.33 | 0.08 | 1 of 18 (4.24) |

Empty control strains, which show no peptide, gave a signal in 4% of pairings with all light chain designs; the median was 2.64 and 95% of these signals were weaker than 1.59. No background was subtracted. Also given: how often the same scFv was detected with the empty control strains, with their mean in brackets.
The authors averaged sequences with at least three values out of six and counted those with two or fewer as poor binders.
The range of this assay differs from that of the first round, and the authors advise against merging the two.
The parent sequence was in this pool as ten entries: three were never detected, three once, and four in most replicates, with averages from 0.34 to 2.37.